# In paper PMC8433439, “Bivalent ligands promote endosomal trafficking of the dopamine D3 receptor-neurotensin receptor 1 heterodimer” (Communications Biology, 2021):
# Chains of the proteins cited; added tags and fusions are not shown. Lines headed by an entry give the natural chain unless they say otherwise; changes in a name come on top.
# UniProt P35462, whole entry: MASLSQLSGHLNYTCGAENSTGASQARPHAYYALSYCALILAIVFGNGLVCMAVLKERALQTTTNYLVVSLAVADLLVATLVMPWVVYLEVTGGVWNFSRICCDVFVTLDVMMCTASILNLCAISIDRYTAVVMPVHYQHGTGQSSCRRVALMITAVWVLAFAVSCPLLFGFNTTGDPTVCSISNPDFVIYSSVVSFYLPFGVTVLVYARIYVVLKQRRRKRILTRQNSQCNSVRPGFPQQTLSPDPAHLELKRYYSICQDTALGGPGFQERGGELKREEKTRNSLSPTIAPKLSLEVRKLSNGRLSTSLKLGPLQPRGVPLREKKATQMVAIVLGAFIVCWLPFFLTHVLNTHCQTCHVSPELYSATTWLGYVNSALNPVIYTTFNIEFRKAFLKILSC
# UniProt P30989, whole entry: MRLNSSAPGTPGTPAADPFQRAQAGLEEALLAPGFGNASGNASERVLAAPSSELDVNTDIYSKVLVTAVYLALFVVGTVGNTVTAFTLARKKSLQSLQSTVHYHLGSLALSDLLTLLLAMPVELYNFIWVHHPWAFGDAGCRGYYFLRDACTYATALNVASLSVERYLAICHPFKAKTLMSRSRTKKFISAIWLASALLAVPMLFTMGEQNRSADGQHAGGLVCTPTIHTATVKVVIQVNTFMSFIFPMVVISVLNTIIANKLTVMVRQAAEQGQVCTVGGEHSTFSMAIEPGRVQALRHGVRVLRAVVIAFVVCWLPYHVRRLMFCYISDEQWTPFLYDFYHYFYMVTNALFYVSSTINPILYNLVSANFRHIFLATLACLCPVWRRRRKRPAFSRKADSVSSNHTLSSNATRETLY
# “Also recorded” adds a separate entry of the source.
# Experiments:
# D3R [1] = biological target: T1, D3R (Homo sapiens, UniProt P35462); assay: biochemical
# D3R [2] = biological target: T1, D3R; assay: Surface ELISA, monoexpressed Flag-D3R; type: cell-based; design: host or cells: HEK293T, transient; details: 1 µM quinpirole, 1 µM NT(8-13) or 10 nM 1d, 30 min
# NTSR1 = biological target: T2, NTSR1 (Homo sapiens, UniProt P30989); assay: Surface ELISA, monoexpressed HA-NTSR1; type: cell-based; details: 1 µM ligand, 30 min; relative to vehicle-treated cells
# T2 construct: host or cells: HEK293T, transient
# NTSR1-ProLink = NTSR1-ProLink (Homo sapiens, UniProt P30989); assay: β-arrestin2 recruitment (DiscoverX PathHunter), NTSR1-ProLink; type: cell-based
smiles,measurement,setting,value
CCCN(CCCCc1cn(-c2ccc(-c3ccc(C(=O)NCCOCCOCCOCCOCCOCCOCCC(=O)NCCOCCOCCOCCOCCOCCOCCC(=O)NCCOCCOCCOCCOCCOCCOCCC(=O)NCCOCCOCCOCCOCCOCCOCCC(=O)N[C@@H](CCCNC(=N)N)C(=O)N[C@@H](CCCNC(=N)N)C(=O)N4CCC[C@H]4C(=O)N[C@@H](Cc4ccc(O)cc4)C(=O)N[C@H](C(=O)N[C@@H](CC(C)C)C(=O)O)[C@@H](C)CC)cc3)cc2)nn1)C1Cc2ccccc2C1 [1d],Ki,D3R [1],0.85 ± 0.38 nM
CC[C@H](C)[C@H](NC(=O)[C@H](Cc1ccc(O)cc1)NC(=O)[C@@H]1CCCN1C(=O)[C@H](CCCNC(=N)N)NC(=O)[C@H](CCCNC(=N)N)NC(=O)CCOCCOCCOCCOCCOCCOCCNC(=O)CCOCCOCCOCCOCCOCCOCCNC(=O)CCOCCOCCOCCOCCOCCOCCNC(=O)CCOCCOCCOCCOCCOCCOCCNC(=O)c1ccc(-c2ccc(-n3cc(CCCCN4CCN(c5ccccc5OC)CC4)nn3)cc2)cc1)C(=O)N[C@@H](CC(C)C)C(=O)O [2d],Ki,D3R [1],7 nM
"CC[C@H](C)[C@H](NC(=O)[C@H](Cc1ccc(O)cc1)NC(=O)[C@@H]1CCCN1C(=O)[C@H](CCCNC(=N)N)NC(=O)[C@@H](N)CCCNC(=N)N)C(=O)N[C@@H](CC(C)C)C(=O)O [NT(8-13), reference compound]",surface expression of monoexpressed D3R,D3R [2],unchanged; also recorded: did not lead to apparent changes in surface expression
CCCN1CCC[C@@H]2Cc3n[nH]cc3C[C@H]21 [quinpirole],surface expression of monoexpressed NTSR1,NTSR1,87 ± 6%
same,β-arrestin2 recruitment to NTSR1-ProLink,NTSR1-ProLink,no effect
